## Yeast mating assay 2: variants of the scFv Ab-91

The measurements come from Engelhart et al. 2022 (doi:10.1038/s41597-022-01779-4) through the FLAb antibody collection.

Target: peptide PDVDLGDISGINAS, taken from heptad repeat 2 (HR2) of SARS-CoV-2 spike.

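Phage display of a naive human antibody library on the peptide gave the parent. Library AAYL51 holds single substitutions and randomly drawn double and triple substitutions in the CDRs. In AlphaSeq, yeast of one mating type display the scFv and yeast of the other type display the target. Binding brings cells together so that they mate, and sequencing counts the barcode pairs among the diploids. Scores were corrected for input abundance and mapped to Kd with protein pairs of known affinity run in the same pool. The assay was run in three technical replicates.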

Ab-91 is the parent antibody, in scFv form: VL, then the linker GGGGSGGGGSGGGGS, then VH. The light chain is unchanged in all variants.
VL: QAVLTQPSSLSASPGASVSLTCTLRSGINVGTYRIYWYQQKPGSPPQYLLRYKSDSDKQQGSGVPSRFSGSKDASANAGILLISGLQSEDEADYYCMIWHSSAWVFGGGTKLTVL
VH: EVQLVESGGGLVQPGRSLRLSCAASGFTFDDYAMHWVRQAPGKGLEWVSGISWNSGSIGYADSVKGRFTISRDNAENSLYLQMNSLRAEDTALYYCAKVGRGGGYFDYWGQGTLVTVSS

Variants are written as CDR1, CDR2 and CDR3 of the heavy chain (limits as in the source). Parent: GFTFDDYAMH, GISWNSGSIGYADSVK, VGRGGGYFDY.
Affinities are written as log10 Kd with Kd in nM; a lower number is a better binder.
A mean of the replicates is given; it leaves out those without a signal.
"not detected" means that the variant was in the library but no mating with the target was seen in any replicate; the authors take this as a sign of poor binding, and no number exists.
Parent in this assay: reference entry 1.86, copy in this library 0.88.
Empty control strains, which show no peptide, gave a signal in 21% of pairings with library AAYL51; the median was 4.54 and 95% of these signals were weaker than 3.26. No background was subtracted.

| CDR-H1 | CDR-H2 | CDR-H3 | log10 Kd (nM), mean | seen in |
|---|---|---|---|---|
| GFTFDDYAMH | GISWNSGSIGYADSVK | VGKQGGYFDQ | 2.37 | 3/3 |
| GFTFDDYAMT | GISINSGSIGYRDSVK | VGRGGGYFDY | not detected | 0/3 |
| GFTFDDYAMH | GISINSGSCGMADSVK | VGRGGGYFDY | 4.27 | 3/3 |
| GFTFDDYAMH | GISWNSGSIGEIDSVK | VGRGGGIFDY | not detected | 0/3 |
| GFTFDDYAMH | GISWGSGSIFYADSVK | VGRGCGYFDY | 3.74 | 1/3 |
| GFTFDDYAMH | GIVWNPNSIGYADSVK | VGRGGGYFDY | 5.09 | 2/3 |
| GFTFDDYAMH | GISWNSGSIGYADSVK | VWIGGGYFDI | 1.89 | 3/3 |
| GFTFDDYAMH | GISWFGGSIGYADSVK | VGRGRGYFDY | 5.93 | 1/3 |
| NYTFDDYAMH | GISWNSGSIGYADSVK | VGCGGGYFDY | not detected | 0/3 |
| GFTFDDYAKH | YISWNSGSLGYADSVK | VGRGGGYFDY | not detected | 0/3 |
| GFTFCDYAMH | GISWNSGSIGGADMVK | VGRGGGYFDY | 3.53 | 2/3 |
| GFTFLDYAMH | GISWNSGSIGYADSVK | CGNGGGYFDY | 5.43 | 1/3 |
| AFTFDDYAMV | GISWNSGSIGYAMSVK | VGRGGGYFDY | 3.94 | 1/3 |
| GFTFDDYAKH | GISWNSGSIGYYDSVK | VGRGGGDFDY | not detected | 0/3 |
| GFTFDIYAMH | GISWNSGSIGYADPVK | VGRGGGYFDN | 5.37 | 2/3 |
| GFRFDDYAMH | GESWNSGSIGYADSVK | VGRGGGYFDY | not detected | 0/3 |
| GFTFDDYAMH | PISWNSGSIGYAQSVK | VGRGGGYFDQ | not detected | 0/3 |
| GFTFDDIAQH | GISWNSGSIGYADSVK | KGRGGGYFDY | not detected | 0/3 |
| VFTFDDYAMH | TISWNSGSIGYADSVK | VNRGGGYFDY | not detected | 0/3 |
| GFTQDDYAMH | GILLNSGSIGYADSVK | VGRGGGYFDY | not detected | 0/3 |
| GFTFDDYTMT | GISWNSGSIGYADSVK | VGRGGSYFDY | not detected | 0/3 |
| GFTFDDYAMY | GISWNSGSIGYADSVY | VGRGGGYFDY | not detected | 0/3 |
| GCTDDDYAMH | GIYWNSGSIGYADSVK | VGRGGGYFDY | 5.04 | 3/3 |
| GFTFDDYAMH | GPSWESGSIGGADSVK | VGRGGGYFDY | 5.91 | 1/3 |
| GFTFDDYAMH | GISWNSDSYGYADSVK | VGRDGGYFDY | not detected | 0/3 |
| GFTFCDYAMH | GISWNSNSIGYADSSK | VGRGGGYFDY | 3.68 | 3/3 |
| GQTFDDYAMH | GISWNSGQIGYADSVK | VGRGGGYFDN | 2.33 | 1/3 |
| GFTEDDYAMH | GITWNSGSIGYADSVK | VGRQGGYFDY | 4.40 | 2/3 |
| GFTFDDYAMH | LISWNSGSIGYADPVK | VGTGGGYFDY | 5.03 | 1/3 |
| WFTFDDYAMH | GISWNSESIGYADSVK | VGHGGGYFDY | 3.99 | 1/3 |
| GCWFDDYAMH | GISWNSGSIGYADAVK | VGRGGGYFDY | not detected | 0/3 |
| GFTFDDYAMH | GISWNSGSIGYPDSWK | VGRGGGYVDY | 3.39 | 1/3 |
| GFTFDPYAMH | GISWNSGSKGYADSVK | VGIGGGYFDY | not detected | 0/3 |
| GFTFHDYAMH | GISWNSGSIGYADSVF | VGRGEGYFDY | 4.12 | 1/3 |
| GFTFDDYAMH | GISWNSGSIVYADSHK | VGRGGGGFDY | not detected | 0/3 |
| GFTFDTYAMH | GISWNSGSIGYADSVK | VGRCGGYFDY | not detected | 0/3 |
| GFTFDDYAMH | GILWNSGSIFYADSVK | VGRGGGYFDY | not detected | 0/3 |
| GFTFDDMAMH | GISWNSDSIGYADSVK | VGRGGGFFDY | 1.25 | 3/3 |
| GFTFDDYAPH | GISWNSGSQGYADSVK | VYRGGGYFDY | 4.37 | 3/3 |
| DLTFDDYAMH | GNSWNSGSIGYADSVK | VGRGGGYFDY | not detected | 0/3 |
| GFTFDDYAMH | GKSWNSGSPGYADSVK | VGRGGGYFNY | not detected | 0/3 |
| GFTFDDMAMH | GISWNSGSIGYALSVK | VGRGGIYFDY | not detected | 0/3 |
| GFTFDDLAMH | GISWNSLSIGYADSVK | VGRGGGYFMY | 4.36 | 1/3 |
| GFTFDDYAMH | GISWNSGSIGYYDSVK | VGRGGVYFDD | 3.67 | 3/3 |
| GFTFDVYAML | GISWNSGSIGYADSVL | VGRGGGYFDY | not detected | 0/3 |
| GFTFDFYAMH | GISWNSGSIPYADSVK | VGRGGGYFDD | 4.51 | 2/3 |
| GFTFDDYAMH | GVSWNSYSILYADSVK | VGRGGGYFDY | not detected | 0/3 |
| GSTFDDYAMH | GISWNEGSIGHADSVK | VGRGGGYFDY | not detected | 0/3 |
| GPYFDDYAMH | GISWNSGSIGYADSVG | VGRGGGYFDY | 4.47 | 1/3 |
| GFTRDDYAMH | GISLNSGSIGDADSVK | VGRGGGYFDY | 3.93 | 1/3 |
| GFTRDDYAMH | GVCWNSGSIGYADSVK | VGRGGGYFDY | not detected | 0/3 |
| GFTFDDYAMH | CISWNSGSIGYADSMK | VGRGGGDFDY | 4.45 | 2/3 |
| GFTFCDYAMH | GISWNSGNIGYADSVK | VGRGGGYFGY | not detected | 0/3 |
| GETFDDYAMH | GISWNSGSIGYADSVY | VGRGGGCFDY | 5.33 | 1/3 |
| GFTMDDYAMH | GISWNEGSIGYADSVK | VGRGQGYFDY | 1.85 | 3/3 |
| GFTEDTYAMH | GISWNSGSIGYADSVK | VGRGGGYGDY | 4.93 | 2/3 |
| GFTFDDYAMH | GISWNSGSFGYADSVK | VIRGGPYFDY | 1.82 | 3/3 |
| GFTFDDYAMH | GISWNSGSIGYADSVK | VGRGGTYTQY | 3.81 | 1/3 |
| GFTFDDTAMH | GISWESGSIGYADSVK | VGRGGGYFDY | 4.54 | 2/3 |
| GFTFDDYAVH | GITWNSGSIGYPDSVK | VGRGGGYFDY | 5.54 | 2/3 |
| GFTFDDYAMH | AISWNSGSIGYADSVK | PGRGGGYFDY | 4.74 | 2/3 |
| GFTFPDYAMH | GTSWNSGSIGYFDSVK | VGRGGGYFDY | 5.40 | 1/3 |
| GFTFDDYAMH | GIEWNSGSIGYADSVK | HGRGGGYFHY | 5.02 | 1/3 |
| GFTFDDYAMH | GISWNSGSIAYADSVK | FGRGGGYFDH | 4.10 | 3/3 |
| GFTDDDYAMH | GISWNSGSIGYGDSSK | VGRGGGYFDY | 5.41 | 2/3 |
| GFTFDDYAMH | GISWKSGSIGYCDDVK | VGRGGGYFDY | 5.17 | 1/3 |
| GFTFDDYAMH | GISWNSGSIGYCDSVK | VGRGGGVFDY | not detected | 0/3 |
| GTTFDDYAMH | GISWNSGSIGYADSTK | VGRGGGYFVY | 4.45 | 2/3 |
| GFTFDDYAMH | GISWNNGSIGYADSVR | IGRGGGYFDY | 1.70 | 3/3 |
| GLTFDDYAMH | GISWNSGSGGYADSVL | VGRGGGYFDY | not detected | 0/3 |
| GFTFDDYAMH | GISWNTGSIGYADSAK | VGKGGGYFDY | 3.75 | 2/3 |
| GFTFDDYAMH | YCSWNSGSIGSADSVK | VGRGGGYFDY | not detected | 0/3 |
| EFTFDDYAMH | GISWNSFSIGTADSVK | VGRGGGYFDY | 3.91 | 1/3 |
| GATFDDYAMH | GISWNSGSIGYYDSGK | VGRGGGYFDY | 3.77 | 1/3 |
| RFTFDDYAMH | GISWNSGSIGYADSQK | VGRGGGYFDY | not detected | 0/3 |